In ChEMBL document CHEMBL1212833, “Protein lysine methyltransferase G9a inhibitors: design, synthesis, and structure activity relationships of 2,4-diamino-7-aminoalkoxy-quinazolines” (J Med Chem, 2010):

Columns and labels:
[1] = biological target: T1, Histone-lysine N-methyltransferase EHMT2 (Homo sapiens, UniProt Q96KQ7); assay: Activity at methyl transferase activity G9a by enzyme coupled S-adenocylehomocystein detection assay
T1 sequence (Q96KQ7 whole entry): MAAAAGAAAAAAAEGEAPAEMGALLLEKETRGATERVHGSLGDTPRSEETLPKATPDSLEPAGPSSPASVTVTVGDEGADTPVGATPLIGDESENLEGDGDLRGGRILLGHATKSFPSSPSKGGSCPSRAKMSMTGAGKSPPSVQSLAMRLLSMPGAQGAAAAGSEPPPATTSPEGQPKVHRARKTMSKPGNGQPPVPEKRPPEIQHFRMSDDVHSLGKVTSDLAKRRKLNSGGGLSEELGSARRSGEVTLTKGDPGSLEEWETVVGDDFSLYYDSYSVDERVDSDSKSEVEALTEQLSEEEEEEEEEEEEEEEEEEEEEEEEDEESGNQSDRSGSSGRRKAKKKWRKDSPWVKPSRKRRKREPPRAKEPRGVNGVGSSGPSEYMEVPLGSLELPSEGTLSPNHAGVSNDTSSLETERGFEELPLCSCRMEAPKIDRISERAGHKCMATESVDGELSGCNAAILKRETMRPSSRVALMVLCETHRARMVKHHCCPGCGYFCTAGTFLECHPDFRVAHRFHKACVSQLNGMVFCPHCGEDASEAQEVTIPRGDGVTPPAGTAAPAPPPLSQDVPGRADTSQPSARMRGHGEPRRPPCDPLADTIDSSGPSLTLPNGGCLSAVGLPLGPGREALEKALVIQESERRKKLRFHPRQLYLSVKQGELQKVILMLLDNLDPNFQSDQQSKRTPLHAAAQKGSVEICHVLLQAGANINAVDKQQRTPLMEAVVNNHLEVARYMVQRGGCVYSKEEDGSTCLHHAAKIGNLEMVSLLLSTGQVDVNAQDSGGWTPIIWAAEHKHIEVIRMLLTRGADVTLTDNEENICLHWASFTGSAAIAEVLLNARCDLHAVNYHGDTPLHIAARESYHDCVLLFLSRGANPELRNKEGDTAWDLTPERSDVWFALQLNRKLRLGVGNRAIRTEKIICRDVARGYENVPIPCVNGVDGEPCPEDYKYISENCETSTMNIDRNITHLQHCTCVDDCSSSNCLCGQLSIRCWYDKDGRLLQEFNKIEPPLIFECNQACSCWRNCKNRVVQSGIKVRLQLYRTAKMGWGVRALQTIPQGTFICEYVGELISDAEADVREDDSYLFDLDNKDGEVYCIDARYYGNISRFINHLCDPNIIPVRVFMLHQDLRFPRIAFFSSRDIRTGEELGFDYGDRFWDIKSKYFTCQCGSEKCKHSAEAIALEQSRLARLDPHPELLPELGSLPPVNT

[2] = biological target: T1, Histone-lysine N-methyltransferase EHMT2; assay: Inhibition of methyl transferase activity of G9a assessed as inhibition of H3K9 methylation by chemiluminescence based oxygen tunneling assay
[3] = biological target: T2, Histone-lysine N-methyltransferase EHMT1 (Homo sapiens, UniProt Q9H9B1); assay: Activity at methyl transferase activity GLP by enzyme coupled S-adenocylehomocystein detection assay
T2 sequence (Q9H9B1 whole entry): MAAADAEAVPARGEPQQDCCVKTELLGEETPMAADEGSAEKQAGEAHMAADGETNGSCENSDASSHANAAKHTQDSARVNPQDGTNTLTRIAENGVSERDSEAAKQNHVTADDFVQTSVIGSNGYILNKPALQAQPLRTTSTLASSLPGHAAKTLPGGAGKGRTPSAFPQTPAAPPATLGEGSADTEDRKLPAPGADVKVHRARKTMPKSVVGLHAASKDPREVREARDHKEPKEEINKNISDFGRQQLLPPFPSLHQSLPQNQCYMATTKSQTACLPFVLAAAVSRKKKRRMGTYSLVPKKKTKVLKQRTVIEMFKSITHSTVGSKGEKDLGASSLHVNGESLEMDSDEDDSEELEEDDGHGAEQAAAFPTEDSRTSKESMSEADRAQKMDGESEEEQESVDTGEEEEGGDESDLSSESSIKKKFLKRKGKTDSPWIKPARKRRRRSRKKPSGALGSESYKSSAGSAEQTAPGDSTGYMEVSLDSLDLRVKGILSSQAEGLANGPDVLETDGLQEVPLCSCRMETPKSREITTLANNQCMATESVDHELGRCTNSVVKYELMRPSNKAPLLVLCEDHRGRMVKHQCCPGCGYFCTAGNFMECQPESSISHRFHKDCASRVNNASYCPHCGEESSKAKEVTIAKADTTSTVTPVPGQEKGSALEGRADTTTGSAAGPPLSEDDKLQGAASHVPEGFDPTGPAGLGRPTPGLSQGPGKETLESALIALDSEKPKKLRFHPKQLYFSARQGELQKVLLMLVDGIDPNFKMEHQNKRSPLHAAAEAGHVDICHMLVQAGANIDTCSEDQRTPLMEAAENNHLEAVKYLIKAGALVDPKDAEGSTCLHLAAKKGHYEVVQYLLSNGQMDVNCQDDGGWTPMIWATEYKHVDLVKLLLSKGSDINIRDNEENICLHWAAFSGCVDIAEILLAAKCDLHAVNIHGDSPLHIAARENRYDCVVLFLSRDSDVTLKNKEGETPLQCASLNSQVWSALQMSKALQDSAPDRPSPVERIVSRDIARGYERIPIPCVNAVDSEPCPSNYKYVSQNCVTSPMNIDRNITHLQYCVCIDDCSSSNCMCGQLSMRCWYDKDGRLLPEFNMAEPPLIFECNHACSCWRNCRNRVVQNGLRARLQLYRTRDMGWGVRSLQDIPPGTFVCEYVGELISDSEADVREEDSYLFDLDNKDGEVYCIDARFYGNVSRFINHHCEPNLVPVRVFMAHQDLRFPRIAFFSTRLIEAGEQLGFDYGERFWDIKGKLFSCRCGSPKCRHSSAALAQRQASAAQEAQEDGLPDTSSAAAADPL

[4] = biological target: T2, Histone-lysine N-methyltransferase EHMT1; assay: Activity at methyl transferase activity GLP by chemiluminescence based oxygen tunneling assay

Row | Compound | IC50 [1] | IC50 [2] | IC50 [3] | IC50 [4]
1 | COc1cc2c(NC3CCN(C)CC3)nc(N3CCCN(C)CC3)nc2cc1OCCN(C)C | 110 nM | 120 nM | – | –
2 | COc1cc2c(NC3CCN(C)CC3)nc(N3CCCN(C)CC3)nc2cc1OCCCC(C)C | – | 5200 nM | – | –
3 | COc1cc2nc(N3CCCN(C)CC3)nc(NC3CCN(Cc4ccccc4)CC3)c2cc1OC | – | – | 34 nM | 27 nM
